The source of these data is patent US11045560B2, “Therapeutic conjugates with sulfated dendrimers for intracellular targeting” (IC DISCOVERY GMBH, priority 2014, dated 2021).

The assay relates to HT29, HepG2, QGP-1, A431, MCF-7, A2780. The assay can be described thus: Inhibition of cell proliferation measured by MTT test. It counts as cell-based, human. Particulars: range from different cell lines, peptide-dendrimer conjugates (Table 7). The method, then: For cytotoxicty measurements, 2×10^5 cells were incubated with 1 ml culture medium containing increasing concentrations of test substances. After 72 hs treatment, cell number, viability and cell diameter as parameter of apoptotic processes were analyzed in a cell counter and analyzer system (CASY®, Schärfe Systems). In addition, drug cytotoxicity was assessed in vitro using the MTT assay (cellular reduction of 3-(4,5-dimethylthiazol-2-yl)-2,5-diphenyltetrazolium bromide) as a test for metabolic activity of the cells. 1×10^4 cells per well were seeded in 96-well plates in 100 μl culture medium containing increasing concentration of the test substance. 10 μl MTT (5 mg/ml in PBS, obtained from Sigma) was added to each well and the plates were incubated for 4 hrs, 24 hrs, 48 hrs or up to 72 h. The resulting formazan product was dissolved with acid isopropanol and the absorbance at a wavelength of 570 nm (Ex570) was read on a Microplate Spectrophotometer (Anthos htII, Microsystems). In a couple of experiments, medium with test substances was removed after 48 hs, cells were counted and identical cell numbers with new medium without test substances were seeded in new plates. MTT assay was performed after further incubation for 72 hours.
Cell culture measurements were performed as described in example 16.
A general note: Formazan colour is commonly taken as a measure of viable cells.

As usually defined, the IC50 is the midpoint of a concentration-inhibition curve. A lower IC50 goes with inhibition by little substance. As to “d02-P7: peptide P7 conjugated to maleimido dendrimer d02 (CPKVVILKKATAYILSVQAEEQKL; conjugated to maleimido dendrimer d02)”, the IC50 fell in the range of 1.1 to 1.8 µM.
